According to patent publication US9487504B2, “Imidazolyl analogs as syk inhibitors” (Merck Sharp & Dohme Corp., priority 2012, dated 2016):

Biological target: recombinant human GST-Syk (Homo sapiens, UniProt P43405)
Experiment: Homogeneous Time-Resolved Fluorescence (HTRF) assay for the recombinant human Syk enzyme
Conditions: read-out: rhSYK IC50, ATP 25 μM, 10-dose titration
Procedure: Syk inhibition may be determined using the following assay protocol:
Homogeneous Time-Resolved Fluorescence (HTRF) Assay for the Recombinant Human Syk Enzyme:
A recombinant GST-hSyk fusion protein was used to measure potency of compounds to inhibit human Syk activity. The recombinant human GST-Syk (Carna Biosciences #08-176) ([…]) was incubated with various concentrations of the inhibitor diluted in DMSO (0.1% final concentration) for 10 minutes at room temperature in 15 mM Tris-HCl (pH 7.5), 0.01% tween 20, 2 mM DTT in 384 well plate format. To initiate the reaction the biotinylated substrate peptide (250 nM final concentration) that contains the phosphorylation site for Syk was added with magnesium (5 mM final concentration) and ATP (25 μM final concentration). Final volume of the reaction was 10 μL. Phosphorylation of the peptide was allowed to proceed for 45 minutes at room temperature. To quench the reaction and detect the phosphorylated product, 2 nM of a Europium-anti-phosphotyrosine antibody (Perkin Elmer #AD0161) and 70 nM SA-APC (Perkin-Elmer #CR130-100) were added together in 15 mM Tris pH 7.5, 40 mM EDTA, 0.01% tween 20. Final volume of the quenching solution was 10 μL. The resulting HTRF signal was measured after 30 minutes on an EnVision (Perkin-Elmer) reader using a time-resolved fluorescence protocol. […]

Question: How did the IC50 turn out when Cc1cc(Nc2nccc(C(F)(F)F)n2)cc(-n2cnc(C3(O)CCC(C(=O)O)CC3)c2)c1 (stereo not drawn) [Example 35, trans-4-hydroxy-4-[1-(3-methyl-5-[[4-(trifluoromethyl)pyrimidin-2-yl]amino}phenyl)-1H-imidazol-4-yl]cyclohexanecarboxylic acid] was run?
Answer: The IC50 was 1 nM.
